Target: T1, RAGE (Homo sapiens, UniProt Q15109)
T1 construct: expressed in transfected cells; host or cells: Chinese hamster ovary (CHO) cells
Assay: 125I-Aβ40 specific binding on RAGE-transfected CHO cells at 4° C., competitive inhibition
Settings: read-out: Kd (binding constant) of 125I-Aβ40 binding to RAGE, as reported in Mackic et al., 1998
Text: Data are mean±s.e.m., n=3 per group.
All three are tertiary amides substituted with a large, hydrophobic hydrocarbon moiety and a monosubstituted aromatic moiety. Linkage to the monosubstituted aromatic is either direct (FPS2) or via an alkyl (FPS1) or heteroaromatic (FPS3) spacer. Two of the compounds also feature a highly electron-poor substituted benzene ring (3-nitro, 4-chloro for FPS1; 3,5-dinitro for FPS2).

By UniProt entry, the sequences of proteins in these tests, tags left out. Residues count along the entry.
UniProt Q15109, 23-404: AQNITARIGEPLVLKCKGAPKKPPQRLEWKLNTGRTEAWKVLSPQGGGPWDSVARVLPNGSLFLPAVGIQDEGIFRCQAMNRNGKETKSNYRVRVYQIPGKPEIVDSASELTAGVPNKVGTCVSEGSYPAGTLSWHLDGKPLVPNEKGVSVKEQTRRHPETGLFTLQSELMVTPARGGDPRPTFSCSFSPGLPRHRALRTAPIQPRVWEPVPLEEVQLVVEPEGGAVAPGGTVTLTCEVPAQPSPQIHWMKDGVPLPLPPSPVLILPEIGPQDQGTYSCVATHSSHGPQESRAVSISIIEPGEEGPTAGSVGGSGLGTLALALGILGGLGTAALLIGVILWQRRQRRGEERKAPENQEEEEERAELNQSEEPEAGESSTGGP

For `CC[C@H](C)[C@H](NC(=O)[C@H](C)NC(=O)CNC(=O)[C@H](CCCCN)NC(=O)[C@H](CC(N)=O)NC(=O)[C@H](CO)NC(=O)CNC(=O)[C@@H](NC(=O)[C@H](CC(=O)O)NC(=O)[C@H](CCC(=O)O)NC(=O)[C@H](C)NC(=O)[C@H](Cc1ccccc1)NC(=O)[C@H](Cc1ccccc1)NC(=O)[C@@H](NC(=O)[C@H](CC(C)C)NC(=O)[C@H](CCCCN)NC(=O)[C@H](CCC(N)=O)NC(=O)[C@H](Cc1cnc[nH]1)NC(=O)[C@H](Cc1cnc[nH]1)NC(=O)[C@@H](NC(=O)[C@H](CCC(=O)O)NC(=O)[C@H](Cc1ccc(O)cc1)NC(=O)CNC(=O)[C@H](CO)NC(=O)[C@H](CC(=O)O)NC(=O)[C@H](Cc1cnc[nH]1)NC(=O)[C@H](CCCNC(=N)N)NC(=O)[C@H](Cc1ccccc1)NC(=O)[C@H](CCC(=O)O)NC(=O)[C@H](C)NC(=O)[C@@H](N)CC(=O)O)C(C)C)C(C)C)C(C)C)C(=O)N[C@H](C(=O)NCC(=O)N[C@@H](CC(C)C)C(=O)N[C@@H](CCSC)C(=O)N[C@H](C(=O)NCC(=O)NCC(=O)N[C@H](C(=O)N[C@H](C(=O)O)C(C)C)C(C)C)C(C)C)[C@@H](C)CC` [125I-Aβ40, reference compound], the Kd was 75 ± 8 nM.

From US8778985B2, “Inhibiting amyloid-beta peptide/rage interaction at the blood-brain barrier” (The University of Rochester, priority 2006, dated 2014)
